The values below come from article PMC3031978 (Bioorganic & medicinal chemistry letters, 2010).

Chains of the proteins cited; added tags and fusions are not shown.
UniProt P35372, whole entry: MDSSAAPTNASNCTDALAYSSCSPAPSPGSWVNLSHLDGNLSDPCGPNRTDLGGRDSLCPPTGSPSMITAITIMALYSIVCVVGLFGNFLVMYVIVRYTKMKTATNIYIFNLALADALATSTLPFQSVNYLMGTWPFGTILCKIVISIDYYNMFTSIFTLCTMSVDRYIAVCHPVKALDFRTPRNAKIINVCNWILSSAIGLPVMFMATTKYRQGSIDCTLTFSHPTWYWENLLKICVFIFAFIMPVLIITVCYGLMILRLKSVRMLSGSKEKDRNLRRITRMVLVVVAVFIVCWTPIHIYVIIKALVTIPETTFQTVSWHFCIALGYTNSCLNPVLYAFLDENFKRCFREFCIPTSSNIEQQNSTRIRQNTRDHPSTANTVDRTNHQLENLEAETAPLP
UniProt P41143, whole entry: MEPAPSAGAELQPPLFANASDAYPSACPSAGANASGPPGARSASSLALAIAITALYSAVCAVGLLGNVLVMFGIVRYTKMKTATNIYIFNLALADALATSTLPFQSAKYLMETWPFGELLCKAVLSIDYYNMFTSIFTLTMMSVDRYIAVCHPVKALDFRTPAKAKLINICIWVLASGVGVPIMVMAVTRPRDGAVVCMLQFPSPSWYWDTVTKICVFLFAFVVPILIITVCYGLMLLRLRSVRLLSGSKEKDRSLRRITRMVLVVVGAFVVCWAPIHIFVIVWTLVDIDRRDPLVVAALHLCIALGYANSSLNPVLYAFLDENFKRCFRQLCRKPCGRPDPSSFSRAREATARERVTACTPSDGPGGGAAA

Each structure is given as a SMILES string. Some results are limits rather than exact numbers.

Experiment [1] addresses MOR (Homo sapiens, UniProt P35372). It counts as binding. Conditions: read-out: Ki [MOR; against [3H]DAMGO.
Experiment [2] deals with DOR (Homo sapiens, UniProt P41143). It counts as binding. The following applies: read-out: Ki [DOR; against [3H]DADLE.

For the compound `COC(=O)[C@@H]1C[C@H](OC(C)=O)C(=O)[C@H]2[C@@]1(C)CC[C@H]1C(=O)O[C@H](c3ccoc3)C[C@]21C` [SA, salvinorin A], the Ki in experiment [1] and in experiment [2] was above 10 µM in each case.
